## AlphaSeq binding of Ab-91 heavy chain variants to a spike HR2 peptide

Binding partner: SARS-CoV-2 spike HR2 peptide, sequence PDVDLGDISGINAS.

Parent scFv Ab-91: VL joined to VH by a (GGGGS)3 linker. Changes lie in the heavy chain CDRs alone.
VL: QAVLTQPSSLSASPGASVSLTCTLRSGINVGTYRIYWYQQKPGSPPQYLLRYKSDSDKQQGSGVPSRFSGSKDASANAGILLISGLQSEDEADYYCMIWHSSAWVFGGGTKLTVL
VH: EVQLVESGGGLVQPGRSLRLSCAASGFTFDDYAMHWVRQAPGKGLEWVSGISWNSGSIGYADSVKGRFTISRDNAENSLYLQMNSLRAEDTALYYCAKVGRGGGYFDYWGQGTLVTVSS

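The starting antibody came from a phage panning campaign against this peptide. The library (AAYL51) carries one to three amino acid substitutions per variant, with no insertions or deletions. The assay is AlphaSeq: two haploid yeast populations carry antibody and antigen on their surface. The frequency of each diploid, read from paired DNA barcodes, reflects how well the two displayed proteins bind. Scores were corrected for input abundance and mapped to Kd with protein pairs of known affinity run in the same pool. Mating was done three times.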

Sequences are complete VH domains.
Values are log10 of the apparent Kd in nM; lower means stronger binding.
Replicates are averaged; those with no signal do not enter the mean.
Where no diploid with the target was found in that replicate, the entry reads "nd": below detection, most likely a poor binder, though not proof of it.

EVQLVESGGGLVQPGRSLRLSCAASGFTFNDYAMHWVRQAPGKGLEWVSGISWNSGSIGYADSVGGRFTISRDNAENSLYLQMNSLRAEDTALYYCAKVGRGGRYFDYWGQGTLVTVSS: 1.60, 1.43, 0.91 (mean 1.31; controls 6 of 9).
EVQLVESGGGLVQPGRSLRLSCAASGFTFDDYAMHWVRQAPGKGLEWVSGISWNSGIGGYADSVKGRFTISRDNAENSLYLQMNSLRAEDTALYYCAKVGRGGGYHDYWGQGTLVTVSS: 4.28, 5.56, 4.63 (mean 4.82; controls 4 of 9).
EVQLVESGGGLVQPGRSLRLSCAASGGTFDDYAMHWVRQAPGKGLEWVSGISWNSGSIGYADSVKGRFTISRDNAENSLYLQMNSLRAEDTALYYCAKVGRGGGYFDYWGQGTLVTVSS: 2.29, 3.07, 2.67 (mean 2.68; controls 1 of 9).
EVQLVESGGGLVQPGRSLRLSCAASGFTFDDYAMHWVRQAPGKGLEWVSGISPNSGSIGYADEVKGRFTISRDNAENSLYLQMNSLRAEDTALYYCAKVGRGGRYFDYWGQGTLVTVSS: 5.06, 5.08, 4.58 (mean 4.91; controls 3 of 9).
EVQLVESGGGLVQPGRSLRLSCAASGFTFDDYAMHWVRQAPGKGLEWVSGGSWNSGIIGYADSVKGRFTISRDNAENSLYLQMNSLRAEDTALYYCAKVGRGGGYGDYWGQGTLVTVSS: 3.33, nd, nd (controls 0 of 9).
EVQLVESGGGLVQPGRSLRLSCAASGFTFDMYAMHWVRQAPGKGLEWVSGISWNSGSIGYLDSVKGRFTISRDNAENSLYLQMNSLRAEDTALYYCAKVGIGGGYFDYWGQGTLVTVSS: 0.71, 2.68, 1.13 (mean 1.51; controls 0 of 9).
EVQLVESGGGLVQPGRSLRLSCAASGFTFDDYAMHWVRQAPGKGLEWVSGRSWNSLSIGYADSVKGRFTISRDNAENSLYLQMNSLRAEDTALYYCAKVGRWGGYFDYWGQGTLVTVSS: nd, nd, nd (controls 0 of 9).
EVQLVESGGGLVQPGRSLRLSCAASGFTHDDYAMHWVRQAPGKGLEWVSGASWNSGSIGYADSVKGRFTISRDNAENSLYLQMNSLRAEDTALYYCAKVGRGGGYFDYWGQGTLVTVSS: nd, nd, 4.06 (controls 2 of 9).
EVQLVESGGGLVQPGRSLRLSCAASGFTFDDYAMHWVRQAPGKGLEWVSGTSWNSGSIGYADSVKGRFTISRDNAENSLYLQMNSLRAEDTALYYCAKVGRRGKYFDYWGQGTLVTVSS: nd, nd, nd (controls 0 of 9).
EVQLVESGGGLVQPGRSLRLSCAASGFSFDDKAMHWVRQAPGKGLEWVSGISWNSGSIGYADSVKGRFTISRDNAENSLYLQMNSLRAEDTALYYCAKVGGGGGYFDYWGQGTLVTVSS: nd, 5.21, nd (controls 1 of 9).
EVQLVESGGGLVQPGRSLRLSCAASGFTFDDYAMHWVRQAPGKGLEWVSPISWNMGSIGYADSVKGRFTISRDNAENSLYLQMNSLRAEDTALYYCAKVGRGGGYFDYWGQGTLVTVSS: 4.64, nd, nd (controls 0 of 9).
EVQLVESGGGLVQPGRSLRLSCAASGFTFDDYAMHWVRQAPGKGLEWVSGISWNSGSPGYPDSVKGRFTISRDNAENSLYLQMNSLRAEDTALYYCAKVGRGGGYFFYWGQGTLVTVSS: nd, nd, nd (controls 2 of 9).
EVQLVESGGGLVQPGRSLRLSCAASGFTFDDYAMHWVRQAPGKGLEWVSGISWNSGSPESADSVKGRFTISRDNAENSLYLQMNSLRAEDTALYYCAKVGRGGGYFDYWGQGTLVTVSS: nd, nd, nd (controls 1 of 9).
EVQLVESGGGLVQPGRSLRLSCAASGFTFDDYAMHWVRQAPGKGLEWVSGIGWNSGSIGYADVVKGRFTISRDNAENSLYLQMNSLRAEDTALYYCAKVGRFGGYFDYWGQGTLVTVSS: 3.00, 3.14, 3.71 (mean 3.28; controls 4 of 9).
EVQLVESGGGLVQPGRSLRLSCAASGFTFKDWAMHWVRQAPGKGLEWVSGISWNSGSNGYADSVKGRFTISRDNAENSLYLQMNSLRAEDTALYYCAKVGRGGGYFDYWGQGTLVTVSS: 2.18, 2.43, 1.96 (mean 2.19; controls 1 of 9).
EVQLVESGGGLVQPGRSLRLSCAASHFTFDDYAMHWVRQAPGKGLEWVSGISWNSGSIGYACSVKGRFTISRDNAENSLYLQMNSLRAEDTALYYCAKVGRWGGYFDYWGQGTLVTVSS: nd, nd, nd (controls 0 of 9).
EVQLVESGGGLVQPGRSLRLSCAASGFTFVDGAMHWVRQAPGKGLEWVSGISWNSGSIGYADSVKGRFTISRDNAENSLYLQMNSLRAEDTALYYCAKVGRGGGYTDYWGQGTLVTVSS: nd, nd, nd (controls 0 of 9).
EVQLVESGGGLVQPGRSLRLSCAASGVTFDDYAMHWVRQAPGKGLEWVSGIWWNSGSIGYADSVKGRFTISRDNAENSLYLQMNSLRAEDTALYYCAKFGRGGGYFDYWGQGTLVTVSS: nd, nd, nd (controls 1 of 9).
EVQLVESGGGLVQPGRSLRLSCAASGHTFDDYAMHWVRQAPGKGLEWVSGISWNSGSIGYADSVKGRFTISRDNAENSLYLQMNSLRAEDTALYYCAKVPRGGGYFDYWGQGTLVTVSS: nd, 5.83, nd (controls 4 of 9).
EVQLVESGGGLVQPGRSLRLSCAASGFTFDDYAMHWVRQAPGKGLEWVSGISWVSGPIGYADSVKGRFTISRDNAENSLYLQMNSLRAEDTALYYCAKVGSGGGYFDYWGQGTLVTVSS: nd, nd, nd (controls 0 of 9).

The closing 2 entries, repeated:

VH,"replicates, log10 nM","log10 Kd (nM), mean",control signals
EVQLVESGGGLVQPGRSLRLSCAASGHTFDDYAMHWVRQAPGKGLEWVSGISWNSGSIGYADSVKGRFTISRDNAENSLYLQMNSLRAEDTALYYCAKVPRGGGYFDYWGQGTLVTVSS,"nd, 5.83, nd",5.83,4 of 9
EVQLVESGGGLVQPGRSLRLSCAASGFTFDDYAMHWVRQAPGKGLEWVSGISWVSGPIGYADSVKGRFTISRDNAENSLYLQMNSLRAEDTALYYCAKVGSGGGYFDYWGQGTLVTVSS,"nd, nd, nd",nd,0 of 9

As a blank, each scFv also met three strains without target: over library AAYL51, 21% of these pairings were detected, typically at 4.54 and seldom below 3.26. Also given: how often the same scFv was detected with the empty control strains.
Parent in this assay: reference entry 1.86, copy in this library 0.88.

Source: Engelhart et al. 2022 (doi:10.1038/s41597-022-01779-4), MIT Lincoln Laboratory and A-Alpha Bio; data file from the FLAb repository.